Results taken from patent US20110003012A1, “TREATING PATIENTS WITH SUBARACHNOID HEMORRHAGE” (Duke University, priority 2007, published 2011).
Some compounds may have been tested in ways that are not shown here.

Tested on: subarachnoid hemorrhage
Assay: Working Examples: patient with subarachnoid hemorrhage
Settings: SNP 1 nmol/kg intravenously and potassium nitrite 50 nmol/kg

sodium nitroprusside
Mean arterial blood pressure reduction: ≤ 10% | Vasospasm (started within three hours): does not occur
